Laboratory results reported in US5441962A, “Method for treating hyperlipemia” (priority 1992, dated 1995).

System: mice
Type: in vivo
Settings: oral

For `Cl.Cn1cc(OCC(O)CNC(C)(C)C)c2ccccc2c1=O` (racemic) [(±)-4-(3-tert.-butylamino-2-hydroxypropoxy)-2-methyl-1 (2H)-isoquinolinone hydrochloride], the “LD50, range in parentheses” value (female mice) was 1063 to 1566 mg/kg and the “LD50, range in parentheses” value (male mice) was 1223 to 1587 mg/kg.

Where two headings read alike, the source gives them in different places.
